## Ab-91 heavy chain CDR variants: yeast mating affinities

Source: Engelhart et al. 2022 (doi:10.1038/s41597-022-01779-4), MIT Lincoln Laboratory and A-Alpha Bio; data file from the FLAb repository.

Target peptide (SARS-CoV-2 spike, HR2 region): PDVDLGDISGINAS

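Phage display of a naive human antibody library on the peptide gave the parent. Variants in AAYL51 differ from the parent at up to three CDR positions; double and triple changes were sampled at random. In AlphaSeq, yeast of one mating type display the scFv and yeast of the other type display the target. Pairs that bind mate more often; barcode pairs of the diploids are counted by sequencing. A regression on co-assayed BCL2-family reference pairs converts the normalised counts of each replicate to an apparent Kd. There are three technical replicates.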

Parent: Ab-91, a human scFv built as VL, a (GGGGS)3 linker, VH. Only the CDRs of the heavy chain vary.
VL: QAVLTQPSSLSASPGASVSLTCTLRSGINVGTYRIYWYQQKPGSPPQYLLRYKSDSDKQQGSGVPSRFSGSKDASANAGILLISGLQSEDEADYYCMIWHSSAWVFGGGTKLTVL
VH: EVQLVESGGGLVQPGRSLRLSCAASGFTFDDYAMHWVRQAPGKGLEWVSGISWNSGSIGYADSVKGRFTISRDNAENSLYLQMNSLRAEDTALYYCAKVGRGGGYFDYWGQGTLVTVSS

Each variant is given by its three heavy chain CDRs, as the data file delimits them; those of the parent are GFTFDDYAMH, GISWNSGSIGYADSVK, VGRGGGYFDY. Affinities are written as log10 Kd with Kd in nM; a lower number is a better binder. Averages over replicates are reported, and they cover detected replicates only. "ND" means that the variant was in the library but no mating with the target was seen in that replicate; the authors take this as a sign of poor binding, and no number exists. In this assay the parent's reference entry averaged 1.86; its copy inside this library read 0.88.

CDR-H1,CDR-H2,CDR-H3,log10 Kd (nM) by replicate,"mean, log10 nM",empty controls
GFTFDDYAMH,GISWNSGLLGYADSVK,VGRGGGYFDY,ND / ND / ND,ND,1 of 9 (3.84)
GFTFMDYAMH,GISWNWGSIGYADSVK,VGRGGGYFHY,3.75 / 4.24 / ND,3.99,1 of 9 (4.14)
GFTFDDYAMH,WISWNSGEIGYADSVK,VGRGGGNFDY,4.32 / ND / ND,4.32,2 of 9 (4.38)
GFTFADYAMS,GISWNSGSIRYADSVK,VGRGGGYFDY,ND / ND / 3.41,3.41,1 of 9 (4.03)
GFTFDDYAMV,AISWNSGSIGYADSVK,VGRGPGYFDY,4.37 / 3.98 / ND,4.17,2 of 9 (5.13)
GFTFDDYAMH,GISRGSGSIGYADSVK,RGRGGGYFDY,4.87 / ND / ND,4.87,1 of 9 (5.39)
GFTFDTYAFH,GISWNSGSIGYADSVK,VGRGGGYFDY,1.84 / 1.50 / 1.38,1.58,0 of 9
GFTFDDYAMH,GISWNSGSIGYAVSVK,VGCWGGYFDY,1.93 / 1.85 / 1.29,1.69,0 of 9
GFTFDDYAMH,GISWNSGSIEYADSNK,VGRGGGYFDN,ND / ND / ND,ND,0 of 9
GFTFDNYAMH,GISWNSGSIQYADSVK,VYRGGGYFDY,ND / ND / ND,ND,0 of 9
GFTFDDYALH,GIRWNSGSIGYADSCK,VGRGGGYFDY,5.43 / ND / ND,5.43,2 of 9 (4.59)
GFTFDGYAMH,NISWNSGSIGYADSVK,VGRGGGYFDY,ND / ND / ND,ND,0 of 9
GFTFDDYAMH,GISWNSGSIGIADSVK,CGHGGGYFDY,ND / ND / ND,ND,1 of 9 (3.43)
GFTFDDYAMS,GISWNSGAIFYADSVK,VGRGGGYFDY,ND / 3.63 / ND,3.63,1 of 9 (3.69)
GFTFCDYAMH,GISWNSGFIGYADFVK,VGRGGGYFDY,ND / 4.59 / ND,4.59,0 of 9
GFTFDDYKMH,GIAWNSGIIGYADSVK,VGRGGGYFDY,5.35 / 4.71 / 5.25,5.11,4 of 9 (4.95)
GFMFDDYAIH,GISWNSGSIGYADSVK,VGRGGGYFVY,ND / ND / ND,ND,4 of 9 (3.99)
GFTFDDYAVH,GISWNSGPIGYADSVK,VGRGGGYFSY,ND / ND / ND,ND,1 of 9 (3.82)
GFTFDDYAMH,GISWNSGSIGYADSVK,VGRGGHVFDF,ND / ND / ND,ND,0 of 9
GFTFDDRAMH,GRSWNSPSIGYADSVK,VGRGGGYFDY,ND / ND / ND,ND,1 of 9 (3.82)
GFTFDDYAMH,GISWNSGSIGYADSWK,VGRGWGKFDY,3.76 / ND / ND,3.76,1 of 9 (3.42)
QFLFDDYAMH,GISWCSGSIGYADSVK,VGRGGGYFDY,ND / ND / ND,ND,3 of 9 (3.94)
GFYFDDYAMH,GISWNSGSIGYFDSHK,VGRGGGYFDY,ND / ND / ND,ND,2 of 9 (4.02)
GFTFDDYAMH,GISWNSGSIFYADSVK,VGRGQGYFDY,5.09 / ND / ND,5.09,0 of 9
GFTFDDYAMH,GIGWNSGSIGYATSVP,VGRGGGYFDY,ND / ND / ND,ND,0 of 9
GHTFDDYAMH,GISPNSPSIGYADSVK,VGRGGGYFDY,ND / ND / ND,ND,1 of 9 (4.76)
GFTFDDYAMH,GISWNPGSIGYCDSVK,VGRGGGYSDY,ND / ND / ND,ND,0 of 9
GFTFDDYAMH,GISWNSGSGGYADSVK,VHRGGRYFDY,ND / ND / ND,ND,0 of 9
GFTFDDHASH,GISGNSGSIGYADSVK,VGRGGGYFDY,ND / ND / ND,ND,2 of 9 (3.07)
GHTFDDYAMH,GISWNSGSIGYADSVK,VGRGGGYFDF,5.17 / ND / ND,5.17,3 of 9 (4.35)
GFTFNDYAMH,GIIWMSGSIGYADSVK,VGRGGGYFDY,ND / ND / ND,ND,1 of 9 (4.24)
GFTFDDYAMH,GISWNSGSIDYADSVK,VGRDGGYFQY,5.04 / 4.43 / ND,4.74,7 of 9 (5.00)
GFTFDDYAMH,GISWNSGQIGYLDSVK,VGRGGGYTDY,4.29 / ND / ND,4.29,3 of 9 (3.95)
GETFDDYAMH,GISWVSGSIGYADSVK,VGRGGGYFDY,ND / ND / ND,ND,1 of 9 (3.33)
GFAFDDYAMH,GISWNSGSIGYADTVK,FGRGGGYFDY,ND / 6.12 / ND,6.12,4 of 9 (4.40)

The 3 strongest on average among those seen in every replicate, once more:

| CDR-H1 | CDR-H2 | CDR-H3 | log10 Kd (nM) by replicate | mean, log10 nM | empty controls |
|---|---|---|---|---|---|
| GFTFDTYAFH | GISWNSGSIGYADSVK | VGRGGGYFDY | 1.84 / 1.50 / 1.38 | 1.58 | 0 of 9 |
| GFTFDDYAMH | GISWNSGSIGYAVSVK | VGCWGGYFDY | 1.93 / 1.85 / 1.29 | 1.69 | 0 of 9 |
| GFTFDDYKMH | GIAWNSGIIGYADSVK | VGRGGGYFDY | 5.35 / 4.71 / 5.25 | 5.11 | 4 of 9 (4.95) |

Background: pairings of library AAYL51 with three empty control strains gave a value in 21% of cases (median 4.54, 5th percentile 3.26). Values in that range, when seen in few replicates, are hard to tell from nonspecific mating. The control count says in how many pairings with the empty strains this scFv gave a signal, with their mean in brackets.